Consider 63 compounds from PubChem BioAssay AID492947 (National Center for Advancing Translational Sciences (NCATS), 2010).

Only a part is listed here, and it is no random draw. The source made the active and inactive calls. Calls follow the shape of the dose curve; as a rule, active = well fitted activation curve with a large enough effect; inconclusive = small, poorly fitted or top-dose-only effect; inactive = flat fitted curve, though single readings scatter.

The assay deals with Beta-2 adrenergic receptor (Homo sapiens) (UniProt P07550). As to the kind of experiment: qHTS assay of beta-arrestin-biased ligands of beta2-adrenergic receptor.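 Also: 0% = DMSO controls and full agonism = EC100 isoproterenol or metaproterenol; nearly all actives have a fitted effect of over 65% in size.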 The conditions noted are these: beta-arrestin recruitment to beta2AR, cell-based reporter; at 46.1 µM (top of the series). The text has this: NIH Molecular Libraries Probe Production Network [MLPCN]
NIH Chemical Genomics Center [NCGC]
PI: Bryan Roth and Bob Lefkowitz
The concept of biased agonism is an emerging concept of molecular pharmacology which proposes that seven transmembrane receptors (7TMRs) or G protein-coupled receptors (GPCRs), exist in multiple signaling conformations and complexes and that ligands (either agonists or antagonists) can induce signaling biased responses for distinct signal transduction cascades.
Furthermore, accumulating evidence over the last decade has drawn attention to a novel function of beta-arrestins as signal transducers that scaffold various signaling molecules upon activation of 7TMRs. […] This beta-arrestin-biased signaling presumably leads to distinct physiological outcomes from those by G protein activation.
Additionally, the active receptor conformations which […] on this beta-arrestin signaling are likely different from those activating G protein signaling
The goal of this screening project will be to discover and optimize novel beta-arrestin-biased ligands for beta2-AR signaling. A luminescent cell-based assay for beta2-AR-mediated agonism, known as the Tango assay, has been validated in which ligand binding of a recombinant beta2-AR and subsequent recruitment of a recombinant beta-arrestin lead to the release of the transcriptional activator tTA, which upregulates transcription of a tTA-responsive luciferase gene. […] Compounds were screened as a concentration-titration series that ranged from 46 microM to 0.6 nM.
NCGC Assay Protocol Summary:
Tango cells were dispensed into white, solid, tissue-culture-treated 1536-well plates at 1500 cells/well in DMEM, containing 1% fetal bovine serum (FBS). Then, 23 nL of compounds or DMSO were delivered to each well using a pin tool. Plates were incubated at 37 degrees C, 5% CO2 for 18 hr. Then 2.5 uL luminescent substrate mix (in-house prepared: 150 mM Tris-Cl, pH 7.6, 3 mM MgCl2, 1% Triton X-100, 5 mM DTT, 0.5 mM CoA, 0.15 mM ATP, 0.44 mM D-luciferin, final concentrations) was added to each well. Plates were then incubated for 15 minutes at room temperature, and subsequently measured on a ViewLux plate reader for luminescent signal using a clear filter with a 10 second exposure and 2x binning. The %Activity was determined from the corrected luminescence values.
Concentration-response curves were fitted to the signals arising from the resulting luminescence. The concentration-effect curves were then classified based on curve quality (r2), response magnitude and degree of measured activity, and compounds were subsequently categorized based on their curve class.
Keywords: biased agonism, beta2-AR, beta-arrestin, GPCR, 7TMR, Tango, luminescence, MLSMR, MLPCN, NIH Roadmap, qHTS, NCGC
Turning to `O=C(O)COc1ccc([As](=O)(O)O)cc1[N+](=O)[O-]`, the activation was inactive: 4.41%.
`Nc1ccccc1[As](=O)(O)c1ccccc1`: the activation was inactive: -0.343%.
The result for `CS(=O)(=O)c1cc([N+](=O)[O-])c2no[n+]([O-])c2c1` reads inactive: -0.302%; that for `O=P(Nc1nccs1)(Oc1ccccc1)Oc1ccccc1`, inactive: -0.0984%; that for `O=P(Nc1nccs1)(c1ccccc1)c1nc2ccccc2s1` (stereo not drawn), inactive: -0.194%.
The result for `CCOP1(=S)c2c(C)nn(CCC#N)c2N=C(c2ccccc2F)N1C` (stereo not drawn) reads inactive: 0.135%; that for `O=[N+]([O-])c1ccc2c(c1)nnn2O`, inactive: 3.37%.
The figure for `CCOP1(=S)c2c(C)nn(CCC#N)c2N=C(c2ccc(F)cc2)N1C` (stereo not drawn) is inactive: -0.0252%; for `CN(C(=O)Cc1ccccc1)[C@@H]1CC[C@]2(CCCO2)C[C@H]1N1CCCC1` it is inactive: -0.165%.
As for `N#CCCN(C(=O)COC(=O)C(O)(c1ccccc1)c1ccccc1)c1ccc(F)cc1`, the activation was inactive: -0.272%.
Turning to `NC(=O)Nc1ccc([As](=O)(O)O)cc1`, the activation is inactive: -0.343%.
The figure for `O=[As](O)(c1cccc(O)c1)c1cccc(O)c1` is inactive: -0.782%; for `CS(=O)(=O)c1ccc(Cl)c(NC(=O)COC(=O)C(O)(c2ccccc2)c2ccccc2)c1` it is inactive: 0.152%; for `O=[As](O)(O)c1cccnc1` it is inactive: 0.202%.
As to `COc1cc(C(=O)NCC2(N3CCOCC3)CCCCC2)cc(Cl)c1OC(C)C`, the activation is inactive: -0.126%.
With `O=C(OC1CN2CCC1CC2)c1ccc(Cl)cc1` (stereo not drawn), the activation is inactive: 0.0676%.
The result for `CCOP(=O)(Nc1cccc2ccccc12)OCC` reads inactive: -1.99%; that for `COc1cc(C2NCCC3(OCCO3)C2(C)C)cc(OC)c1OC` (stereo not drawn), inactive: -0.22%; that for `CCCOP(=S)(Nc1nc(N)cc(=O)[nH]1)OCCC`, inactive: 0.396%.
`Nc1cccc2c([As](=O)(O)O)cccc12`: the activation was inactive: 0.261%.
The figure for `Cc1ccc(NCCc2c([N+](=O)[O-])cc([N+](=O)[O-])cc2[N+](=O)[O-])cc1` is inactive: -0.139%; for `CC(C)(C)C(=O)NC(Sc1ncccn1)C(Cl)(Cl)Cl` (stereo not drawn) it is inactive: -1.16%.
With `Clc1n[nH]nc1-c1nn[nH][15n]1`, the activation is inactive: -0.061%.
`CCOP(=O)(Nc1ccc(C)cn1)OCC`: the activation was inactive: 0.282%.
With `CCOP(=O)(NC(=NC(C)c1ccccc1)NC(C)c1ccccc1)OCC` (stereo not drawn), the activation is inactive: 0.27%.
On to `CCC1=CC2Cc3nc4ccc(Cl)cc4c(N)c3C(C1)C2` (stereo not drawn), for which the activation was inactive: 0.0553%.
For the compound `O=P1(Nc2ccccn2)COc2ccccc2OC1`, the activation was inactive: 0.386%.
For the compound `O=[As](O)(c1ccccc1Br)c1ccccc1Br`, the activation is inactive: -0.646%.
On to `CN(C(=O)Cc1ccc(Cl)c(Cl)c1)[C@@H]1CCCC[C@H]1N1CCCC1`, for which the activation was inactive: -0.187%.
In the case of `CC(C)/C=N\N=C(\N)N[N+](=O)[O-]`, the activation is inactive: -0.0811%.
As for `COc1ccccc1CNC(=O)COC(=O)C(O)(c1ccccc1)c1ccccc1`, the activation was inactive: -0.441%.
Turning to `O=C(/C=C/c1ccccc1)OC1CN2CCC1CC2` (stereo not drawn), the activation was inactive: 0.504%.
On to `CN(C)C1(CNC(=O)c2ccc(S(C)(=O)=O)cc2)CCCCC1`, for which the activation was inactive: 0.204%.
For `Cc1ccc(C(=O)OC2CN3CCC2CC3)cc1` (stereo not drawn), the activation was inactive: 0.163%.
Turning to `CC1CCC(C(C)C)C(OP(=O)(Nc2ccccn2)c2ccccc2)C1` (stereo not drawn), the activation is inactive: -0.298%.
Regarding `Cc1nn(-c2ccccc2)c2c1P(=O)(N1CCOCC1)N(C)C(c1ccccc1)=N2` (stereo not drawn), the activation was inactive: 0.0605%.
For the compound `O=[As](O)(c1cccs1)c1cccs1`, the activation is inactive: -0.463%.
The result for `Cc1ccc(OCC(=O)OC2CN3CCC2CC3)cc1` (stereo not drawn) reads inactive: -0.271%.
As for `NS(=O)(=O)c1cccc(NC(=O)COC(=O)C(O)(c2ccccc2)c2ccccc2)c1`, the activation is inactive: 0.133%.
The figure for `O=P1(Nc2ccc(Br)cn2)COc2ccccc2OC1` is inactive: -0.0536%.
The result for `Nc1cccc([As](=O)(O)c2ccccc2)c1` reads inactive: 1.11%.
The figure for `O=P1(Nc2ncccn2)COc2ccccc2OC1` is inactive: 0.848%; for `Cc1cc(SC(NC(=O)c2ccccc2)C(Cl)(Cl)Cl)nc(C(C)C)n1` (stereo not drawn) it is inactive: -0.814%.
In the case of `CCCCOc1ccc(C(=O)NCC2(N3CCCCC3)CCCCC2)cc1OC`, the activation was inactive: 0.0214%.
The result for `CCOC(=O)Nc1ccc([As](=O)(O)O)c(O)c1` reads inactive: -0.532%.
The figure for `O=[N+]([O-])c1ccc(Nc2ccc(Oc3ccc([N+](=O)[O-])cc3[N+](=O)[O-])cc2)c([N+](=O)[O-])c1` is inactive: -0.263%; for `Cc1cc(SC(NC=O)C(Cl)(Cl)Cl)ncn1` (stereo not drawn) it is inactive: 0.2%.
The figure for `O=P(Nc1ccccn1)(c1cccc2ccccc12)c1cccc2ccccc12` is inactive: 0.133%.
As to `CCOC(=O)Nc1cccc([As](=O)(O)O)c1`, the activation was inactive: -0.978%.
Regarding `O=C(Nc1ccncc1[N+](=O)[O-])c1ccc([N+](=O)[O-])cc1[N+](=O)[O-]`, the activation is inactive: 0.0187%.
Regarding `O=C(COc1ccccc1)OC1CN2CCC1CC2` (stereo not drawn), the activation is inactive: -0.153%.
The result for `COP1(=S)c2c(C)nn(CCC#N)c2N=C(c2ccc(F)cc2)N1C` (stereo not drawn) reads inactive: -0.429%; that for `CCC(C)N(CC(C)C)C(=S)SC(NC(C)=O)C(Cl)(Cl)Cl` (stereo not drawn), inactive: -1.18%.
Consider `CCOC(=O)c1ccc(NC(=O)C(C)(CCl)SC)cc1` (stereo not drawn), for which the activation is inactive: -0.0757%.
The figure for `O=C(OC1CN2CCC1CC2)c1cccc([N+](=O)[O-])c1` (stereo not drawn) is inactive: -0.704%; for `COc1cc(I)ccc1[As](=O)(O)O` it is inactive: -0.14%.
The figure for `COc1ccc2nc(NP(=O)(c3ccccc3)c3ccccc3)sc2c1` is inactive: -0.131%.
For `Cc1cc(=O)[nH]c(N[N+](=O)[O-])n1`, the activation is inactive: -0.155%.
With `O=C(OC1CN2CCC1CC2)C12CC3CC(CC(C3)C1)C2` (stereo not drawn), the activation was inactive: -0.0208%.
For `Cc1c2c(nc3ccccc13)SC(C(Cl)Cl)C2` (stereo not drawn), the activation was inactive: 0.0486%.
In the case of `COc1ccc(N/C(=N/P(=O)(N2CCOCC2)N2CCOCC2)N2CCOCC2)cc1`, the activation was inactive: -0.169%.
Consider `Cc1ccc2nc3c(c(C)c2c1)CC(C(Cl)Cl)S3` (stereo not drawn), for which the activation was inactive: 0.327%.
As to `Cc1ccc(OP(=O)(Nc2ccc([N+](=O)[O-])cn2)Oc2ccc(C)cc2)cc1`, the activation was inactive: -0.627%.
